# Assay results as given in paper PMC10245146, “CNS4 causes subtype‐specific changes in agonist efficacy and reversal potential of permeant cations in NMDA receptors” (Pharmacology Research & Perspectives, 2023).
# The chains behind the UniProt entries cited, without tags or fusion partners. Residues count along the entry.
# UniProt O15399, 28-1336: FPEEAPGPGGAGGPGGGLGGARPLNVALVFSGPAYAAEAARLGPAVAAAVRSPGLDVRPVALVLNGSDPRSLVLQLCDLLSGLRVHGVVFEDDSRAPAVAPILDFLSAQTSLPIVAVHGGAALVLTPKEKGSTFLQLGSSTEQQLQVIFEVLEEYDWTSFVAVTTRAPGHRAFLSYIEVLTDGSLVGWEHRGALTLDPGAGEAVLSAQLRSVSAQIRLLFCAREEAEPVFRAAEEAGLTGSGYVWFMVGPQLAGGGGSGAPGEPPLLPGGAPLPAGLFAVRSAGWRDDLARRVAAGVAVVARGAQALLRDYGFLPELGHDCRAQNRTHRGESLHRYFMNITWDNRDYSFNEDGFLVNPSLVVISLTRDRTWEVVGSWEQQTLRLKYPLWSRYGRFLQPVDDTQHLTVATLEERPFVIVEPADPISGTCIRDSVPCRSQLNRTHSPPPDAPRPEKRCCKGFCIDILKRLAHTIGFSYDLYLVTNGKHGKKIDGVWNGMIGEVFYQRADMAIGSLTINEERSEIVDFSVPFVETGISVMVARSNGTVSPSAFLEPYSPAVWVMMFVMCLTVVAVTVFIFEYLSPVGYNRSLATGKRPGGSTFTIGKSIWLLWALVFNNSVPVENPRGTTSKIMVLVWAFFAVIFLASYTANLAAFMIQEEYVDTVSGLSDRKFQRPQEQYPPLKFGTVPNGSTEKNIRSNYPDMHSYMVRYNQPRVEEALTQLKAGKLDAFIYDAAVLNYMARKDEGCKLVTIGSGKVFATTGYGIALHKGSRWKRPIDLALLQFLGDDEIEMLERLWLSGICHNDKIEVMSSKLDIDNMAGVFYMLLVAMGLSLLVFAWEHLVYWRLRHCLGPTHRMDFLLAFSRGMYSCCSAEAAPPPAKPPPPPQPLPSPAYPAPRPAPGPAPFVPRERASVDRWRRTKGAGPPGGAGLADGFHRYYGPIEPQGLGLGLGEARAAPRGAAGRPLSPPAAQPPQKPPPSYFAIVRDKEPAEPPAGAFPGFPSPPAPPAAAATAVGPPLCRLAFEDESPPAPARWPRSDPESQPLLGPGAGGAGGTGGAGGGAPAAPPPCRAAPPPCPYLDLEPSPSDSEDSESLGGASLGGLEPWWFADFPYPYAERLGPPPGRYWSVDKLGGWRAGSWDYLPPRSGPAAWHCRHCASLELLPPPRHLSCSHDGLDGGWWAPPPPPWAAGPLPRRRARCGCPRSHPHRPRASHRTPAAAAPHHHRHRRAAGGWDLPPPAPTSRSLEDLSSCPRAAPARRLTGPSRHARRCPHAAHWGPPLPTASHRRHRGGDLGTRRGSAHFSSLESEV
# UniProt Q12879, 23-1464: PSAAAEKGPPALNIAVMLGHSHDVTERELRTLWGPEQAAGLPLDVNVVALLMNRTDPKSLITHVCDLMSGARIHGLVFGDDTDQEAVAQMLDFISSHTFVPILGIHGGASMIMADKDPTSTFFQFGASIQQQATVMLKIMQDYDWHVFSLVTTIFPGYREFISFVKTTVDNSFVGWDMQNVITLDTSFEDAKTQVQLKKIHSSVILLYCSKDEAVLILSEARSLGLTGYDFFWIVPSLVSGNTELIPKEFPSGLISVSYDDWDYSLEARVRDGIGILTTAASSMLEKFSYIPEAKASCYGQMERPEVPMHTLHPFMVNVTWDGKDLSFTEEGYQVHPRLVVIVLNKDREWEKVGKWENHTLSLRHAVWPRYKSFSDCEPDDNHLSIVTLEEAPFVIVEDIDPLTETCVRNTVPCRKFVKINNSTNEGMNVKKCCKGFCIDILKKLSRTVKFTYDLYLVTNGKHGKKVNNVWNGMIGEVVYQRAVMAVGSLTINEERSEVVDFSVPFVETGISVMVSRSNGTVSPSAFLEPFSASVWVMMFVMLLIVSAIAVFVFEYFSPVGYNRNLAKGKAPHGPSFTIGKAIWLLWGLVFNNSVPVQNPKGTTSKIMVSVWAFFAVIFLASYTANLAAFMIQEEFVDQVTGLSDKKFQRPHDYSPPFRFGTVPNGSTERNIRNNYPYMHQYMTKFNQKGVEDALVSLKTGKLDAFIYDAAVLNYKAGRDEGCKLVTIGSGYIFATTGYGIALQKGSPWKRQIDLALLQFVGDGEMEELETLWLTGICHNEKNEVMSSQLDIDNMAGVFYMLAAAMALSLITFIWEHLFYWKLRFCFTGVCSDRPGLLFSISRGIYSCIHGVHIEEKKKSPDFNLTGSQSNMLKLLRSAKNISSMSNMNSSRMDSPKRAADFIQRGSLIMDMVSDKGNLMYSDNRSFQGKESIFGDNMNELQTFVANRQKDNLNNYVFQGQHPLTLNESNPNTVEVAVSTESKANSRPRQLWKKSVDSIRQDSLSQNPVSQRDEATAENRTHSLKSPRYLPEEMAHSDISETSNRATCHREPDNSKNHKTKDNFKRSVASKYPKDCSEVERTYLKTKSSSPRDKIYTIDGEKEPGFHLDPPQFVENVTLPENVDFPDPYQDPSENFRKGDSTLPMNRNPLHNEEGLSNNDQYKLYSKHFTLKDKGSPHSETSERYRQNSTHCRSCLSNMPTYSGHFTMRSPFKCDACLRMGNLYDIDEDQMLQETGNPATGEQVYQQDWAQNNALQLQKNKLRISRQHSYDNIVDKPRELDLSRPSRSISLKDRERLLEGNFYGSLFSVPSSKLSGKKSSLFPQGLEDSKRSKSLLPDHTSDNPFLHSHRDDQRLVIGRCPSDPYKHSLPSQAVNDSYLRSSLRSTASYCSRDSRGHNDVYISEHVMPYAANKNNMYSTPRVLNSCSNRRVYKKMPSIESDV
# UniProt Q00960, 27-1482: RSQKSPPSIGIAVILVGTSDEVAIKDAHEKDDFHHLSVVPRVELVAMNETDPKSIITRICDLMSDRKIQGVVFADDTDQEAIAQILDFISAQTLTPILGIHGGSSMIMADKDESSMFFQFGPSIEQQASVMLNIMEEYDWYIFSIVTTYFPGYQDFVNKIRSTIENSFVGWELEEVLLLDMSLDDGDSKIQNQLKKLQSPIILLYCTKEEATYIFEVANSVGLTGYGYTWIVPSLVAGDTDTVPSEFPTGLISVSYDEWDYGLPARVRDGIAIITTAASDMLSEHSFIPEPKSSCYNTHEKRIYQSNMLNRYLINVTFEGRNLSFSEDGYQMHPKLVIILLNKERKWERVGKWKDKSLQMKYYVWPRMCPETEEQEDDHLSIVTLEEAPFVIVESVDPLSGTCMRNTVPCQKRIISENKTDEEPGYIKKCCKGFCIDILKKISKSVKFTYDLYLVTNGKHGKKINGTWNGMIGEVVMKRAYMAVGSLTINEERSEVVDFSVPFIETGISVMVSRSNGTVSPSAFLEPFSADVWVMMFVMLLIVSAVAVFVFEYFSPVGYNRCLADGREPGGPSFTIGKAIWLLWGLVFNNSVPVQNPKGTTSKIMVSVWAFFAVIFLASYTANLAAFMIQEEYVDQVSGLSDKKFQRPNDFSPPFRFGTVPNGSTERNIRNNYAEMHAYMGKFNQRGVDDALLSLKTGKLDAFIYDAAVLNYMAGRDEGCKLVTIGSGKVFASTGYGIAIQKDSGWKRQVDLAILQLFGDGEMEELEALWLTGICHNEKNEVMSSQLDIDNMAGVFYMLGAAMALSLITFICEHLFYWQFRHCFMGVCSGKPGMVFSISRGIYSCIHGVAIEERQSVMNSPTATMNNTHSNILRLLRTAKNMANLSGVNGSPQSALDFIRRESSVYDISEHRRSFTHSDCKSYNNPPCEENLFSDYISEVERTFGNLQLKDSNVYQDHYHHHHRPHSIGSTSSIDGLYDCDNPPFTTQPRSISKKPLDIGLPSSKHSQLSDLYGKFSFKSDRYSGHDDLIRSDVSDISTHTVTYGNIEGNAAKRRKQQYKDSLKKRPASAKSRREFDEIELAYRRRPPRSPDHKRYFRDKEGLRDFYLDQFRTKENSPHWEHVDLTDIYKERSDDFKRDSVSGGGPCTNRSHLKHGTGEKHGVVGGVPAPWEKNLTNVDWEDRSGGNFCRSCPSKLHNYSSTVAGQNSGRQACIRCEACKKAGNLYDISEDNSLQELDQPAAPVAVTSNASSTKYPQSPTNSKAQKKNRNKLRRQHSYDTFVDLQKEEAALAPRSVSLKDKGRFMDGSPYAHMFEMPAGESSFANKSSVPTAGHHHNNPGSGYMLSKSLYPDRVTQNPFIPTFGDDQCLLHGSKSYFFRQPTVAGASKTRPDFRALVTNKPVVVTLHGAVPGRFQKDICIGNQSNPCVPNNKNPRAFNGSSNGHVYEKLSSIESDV
# UniProt Q14957, 20-1233: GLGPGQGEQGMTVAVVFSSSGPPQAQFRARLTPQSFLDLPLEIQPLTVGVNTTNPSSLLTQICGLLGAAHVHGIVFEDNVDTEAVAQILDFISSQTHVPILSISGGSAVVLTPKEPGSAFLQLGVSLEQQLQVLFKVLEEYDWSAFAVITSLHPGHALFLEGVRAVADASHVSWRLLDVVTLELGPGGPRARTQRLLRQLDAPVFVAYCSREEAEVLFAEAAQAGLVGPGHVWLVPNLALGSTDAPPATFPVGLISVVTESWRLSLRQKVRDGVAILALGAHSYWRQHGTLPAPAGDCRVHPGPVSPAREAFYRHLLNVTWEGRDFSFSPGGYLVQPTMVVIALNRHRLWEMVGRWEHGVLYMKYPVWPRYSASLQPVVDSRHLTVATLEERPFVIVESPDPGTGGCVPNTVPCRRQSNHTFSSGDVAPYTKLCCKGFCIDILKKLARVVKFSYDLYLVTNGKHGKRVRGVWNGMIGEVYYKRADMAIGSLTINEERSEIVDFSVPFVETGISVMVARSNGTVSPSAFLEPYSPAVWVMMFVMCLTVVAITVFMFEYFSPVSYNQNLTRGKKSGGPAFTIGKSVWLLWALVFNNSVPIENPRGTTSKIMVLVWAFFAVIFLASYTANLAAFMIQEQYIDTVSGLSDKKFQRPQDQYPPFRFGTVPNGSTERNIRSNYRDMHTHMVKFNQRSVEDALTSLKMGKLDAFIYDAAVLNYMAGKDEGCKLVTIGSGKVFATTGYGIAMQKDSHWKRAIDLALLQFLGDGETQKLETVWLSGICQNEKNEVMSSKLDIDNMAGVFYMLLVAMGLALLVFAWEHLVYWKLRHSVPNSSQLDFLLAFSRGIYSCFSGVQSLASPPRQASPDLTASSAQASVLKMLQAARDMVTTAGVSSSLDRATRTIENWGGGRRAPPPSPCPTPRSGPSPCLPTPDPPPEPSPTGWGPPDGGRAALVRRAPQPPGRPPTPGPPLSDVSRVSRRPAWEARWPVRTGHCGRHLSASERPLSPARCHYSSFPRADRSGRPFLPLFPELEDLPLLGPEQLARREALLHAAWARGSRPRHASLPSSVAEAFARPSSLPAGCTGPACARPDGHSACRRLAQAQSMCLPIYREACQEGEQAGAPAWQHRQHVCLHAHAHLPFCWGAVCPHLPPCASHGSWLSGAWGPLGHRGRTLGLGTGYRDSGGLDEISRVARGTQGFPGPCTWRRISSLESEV
# How the values were obtained:
# Format in all cases: cell-based
# GluN1/2D NMDA receptors = target: T1, GluN1/2D NMDA receptors (UniProt O15399+P35439); assay: TEVC agonist dose-response, Xenopus oocytes expressing 1/2D; conditions: without CNS4; 10 μM glycine; 100 μM glutamate constant; relative to 100 nM glycine
# T1 construct: host or cells: Xenopus oocytes (cRNA injection)
# Description: (§1) NMDA receptor constructs: cDNA encoding the NMDA receptor1a subunit (GluN1a) was obtained from Dr. Nakanishi (Kyoto, Japan). cDNA encoding the GluN2B (pci_sepGluN2B), originally developed in the Malinow lab,[33] was purchased from Addgene (cat# 23998), Cambridge, MA. cDNA encoding the GluN2C and GluN2D were purchased from GenScript, New Jersey, USA. Mutated GluN1, 2A and 2B cDNA constructs capable of assembling as GluN1/2A/2B triheteromeric (1/2AB) receptors[34] were obtained from Dr. Paoletti (Laboratoire de Neurobiologie, CNRS). These constructs have been previously tested for 1/2AB receptor activity of GluN1/2A receptor‐selective potentiators.[35] […]
# (§2) Electrophysiological responses were measured using a standard two‐microelectrode voltage‐clamp workstation (Warner Instruments model OC‐725C) designed to provide a fast clamp of large cells. […] Response magnitude was determined in Xenopus oocytes expressing different NMDA receptor subunits (GluN1/2A, 1/2B, 1/2C, 1/2D, and 1/2A/2B) by the steady plateau response elicited by bath application of different agonist concentrations. […] Statistical significance was determined at the overall alpha level 0.05, using appropriate statistical methods as described in all figure captions. […]
# GluN1/2A NMDA receptors = target: T2, GluN1/2A NMDA receptors (UniProt P35439+Q12879); assay: TEVC agonist dose-response, Xenopus oocytes expressing 1/2A; conditions: without CNS4; 100 μM glutamate constant; relative to 1 μM glycine
# T2 construct: expressed in transfected cells; host or cells: Xenopus oocytes (cRNA injection)
# Description: as §1, §2
# GluN1/2B NMDA receptors = target: T3, GluN1/2B NMDA receptors (Rattus norvegicus, UniProt P35439+Q00960); assay: TEVC agonist dose-response, Xenopus oocytes expressing 1/2B; conditions: without CNS4; 100 μM glutamate constant; relative to 1 μM glycine
# T3 construct: SEP (super-ecliptic pHluorin; printed only as 'sep' in the plasmid name); host or cells: Xenopus oocytes (cRNA injection)
# Description: as §1, §2
# GluN1/2C NMDA receptors = target: T4, GluN1/2C NMDA receptors (UniProt P35439+Q14957); assay: TEVC agonist dose-response, Xenopus oocytes expressing 1/2C; conditions: without CNS4; 100 μM glutamate constant; relative to 100 nM glycine
# T4 construct: host or cells: Xenopus oocytes (cRNA injection)
# Description: as §1, §2
structure (smiles),measurement,setting,value
"NCC(=O)O [glycine, reference compound]",Glycine efficacy: relative fold change in current at highest glycine concentration,GluN1/2D NMDA receptors,1.075 ± 0.07 fold
same,Glycine efficacy: relative fold change in current at highest glycine concentration,GluN1/2A NMDA receptors,2.89 ± 0.11 fold
same,Glycine efficacy: relative fold change in current at highest glycine concentration,GluN1/2B NMDA receptors,1.45 ± 0.13 fold
same,Glycine efficacy: relative fold change in current at highest glycine concentration,GluN1/2C NMDA receptors,1.03 ± 0.02 fold
